Source: US11685720B2, “Salt forms of URAT-1 inhibitors” (INVENTISBIO CO., LTD., priority 2018, dated 2023)

Experiment: Solubility test, suspension filtered and filtrate analyzed by HPLC
Type: physicochemical
Conditions: 25° C.
Protocol: Weighed 5 mg of a sample solid (1-Ca salt or Compound 1) into a 8 mL of glass vial, and then added 1 mL of a pH 6.8 buffer solution or water. The suspension was centrifuged under 200 rpm at 25° C., and 0.3 mL to 0.5 mL of […]. At each time point, the suspension was filtered to remove solid, and the filtrate was analyzed by HPLC.
The solubilities of the three salts and the Compound 1 were studied in pH 6.8 buffer and water, and the data was summarized in Table 5.

- Solubility (pH 6.8 buffer, 0.5 h): 264 µg/mL
- Solubility (pH 6.8 buffer, 2 h): 279 µg/mL
- Solubility (water, 0.5 h): 1657 µg/mL
- Solubility (water, 2 h): 1625 µg/mL
Substance: calcium 2-(1-(((3-(4-cyanophenyl)pyridin-4-yl)thio)methyl)cyclopropyl)acetate [1-Ca salt]
